{
  "sequences": {"note": "Sequences of proteins named here, by UniProt entry; tags and fusion partners are left off.", "UniProt P33535, whole entry": "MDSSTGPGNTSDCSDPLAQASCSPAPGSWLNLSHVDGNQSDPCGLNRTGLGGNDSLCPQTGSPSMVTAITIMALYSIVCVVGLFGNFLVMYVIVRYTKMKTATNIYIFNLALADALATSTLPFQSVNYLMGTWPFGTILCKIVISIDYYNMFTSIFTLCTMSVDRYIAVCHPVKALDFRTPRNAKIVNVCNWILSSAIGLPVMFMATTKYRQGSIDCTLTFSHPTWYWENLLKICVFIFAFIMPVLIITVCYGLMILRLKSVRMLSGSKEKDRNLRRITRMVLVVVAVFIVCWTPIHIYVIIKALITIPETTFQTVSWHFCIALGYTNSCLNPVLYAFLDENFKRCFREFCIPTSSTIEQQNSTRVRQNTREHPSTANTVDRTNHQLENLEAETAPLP"},
  "source": "patent US8614324B2",
  "about": "“Filamin A binding anti-inflammatory and analgesic” (priority 2008, dated 2013)",
  "molecular_target": "T1, mu opiate receptor (MOR) (Rattus norvegicus, UniProt P33535)",
  "T1 construct": "from tissue; host or cells: striatal membrane preparation (rat striatum)",
  "assay": "MOR agonist activity, [35S]GTPγS binding assay using striatal membranes",
  "assay_type": "biochemical",
  "parameters": "reference not given here",
  "method": "To assess the mu opiate receptor (MOR) agonist activity of positive compounds from the FLNA screening, compounds were tested in a [^35S]GTPγS binding assay using striatal membranes. Our previous study has shown that in striatal membranes, activation of MOR leads to an increase in [^35S]GTPγS binding to Gαo (Wang et al., 2005 Neuroscience 135:247-261).\nStriatal tissue was homogenized in 10 volumes of ice cold 25 mM HEPES buffer, pH 7.4, which contained 1 mM EGTA, 100 mM sucrose, 50 μg/ml leupeptin, 0.04 mM PMSF, 2 μg/ml soybean trypsin inhibitor and 0.2% 2-mercaptoethanol. The homogenates were centrifuged at 800×g for 5 minutes and the supernatants were centrifuged at 49,000×g for 20 minutes.\nThe resultant striatal membrane preparation (200 μg) was admixed and maintained (incubated) at 30° C. for 5 minutes in reaction buffer as above that additionally contained 1 mM MgCl2 and 0.5 nM [^35S]GTPγS (0.1 μCi/assay, PerkinElmer Life and Analytical Sciences) in a total volume of 250 μl and continued for 5 minutes in the absence or presence of 0.1-10 μM of an assayed compound of interest. The reaction was terminated by dilution with 750 μl of ice-cold reaction buffer that contained 20 mM MgCl2 and 1 mM EGTA and immediate centrifugation at 16,000×g for 5 minutes.\nThe resulting pellet was solubilized by sonicating for 10 seconds in 0.5 ml of immunoprecipitation buffer containing 0.5% digitonin, 0.2% sodium cholate and 0.5% NP-40. Normal rabbit serum (1 μl) was added to 1 ml of lysate and incubated at 25° C. for 30 minutes. Nonspecific immune complexes were removed by incubation with 25 μl of protein A/G-conjugated agarose beads at 25° C. for 30 minutes followed by centrifugation at 5,000×g at 4° C. for 5 minutes. […]\nThe immunocomplexes so formed were collected by incubation at 25° C. for 30 minutes with 40 μl of agarose-conjugated protein A/G beads and centrifugation at 5,000×g at 4° C. for 5 minutes. […] The radioactivity in the suspension was determined by liquid scintillation spectrometry. […]",
  "data": [
    {"smiles": "O=S(=O)(c1ccc(F)cc1)N1CCOC12CCN(CC1CC1)CC2", "note": "[F-C0134]", "values": [
      {"measurement": "MOR agonist activity, [35S]GTPγS binding to Gαo", "setting": "0.1 μM compound, striatal membranes", "result": 290.6, "unit": "%"},
      {"measurement": "MOR agonist activity, [35S]GTPγS binding to Gαo", "setting": "1 μM compound + BFNA (1 μM β-funaltrexamine)", "result": 66.6, "unit": "%"},
      {"measurement": "MOR agonist activity, [35S]GTPγS binding to Gαo", "setting": "1 μM compound, striatal membranes", "result": 378.9, "unit": "%"}
    ]}
  ]
}
